Measurements: patent US20260116920A1, “HUMAN TRANSFERRIN RECEPTOR BINDING PEPTIDE” (PEPTIDREAM INC., priority 2021, published 2026)
Where two headings read alike, the source gives them in different places.

Sequences of proteins named here, by UniProt entry; tags and fusion partners are left off. Residues count along the entry.
UniProt P02786, 89-760 limits assumed: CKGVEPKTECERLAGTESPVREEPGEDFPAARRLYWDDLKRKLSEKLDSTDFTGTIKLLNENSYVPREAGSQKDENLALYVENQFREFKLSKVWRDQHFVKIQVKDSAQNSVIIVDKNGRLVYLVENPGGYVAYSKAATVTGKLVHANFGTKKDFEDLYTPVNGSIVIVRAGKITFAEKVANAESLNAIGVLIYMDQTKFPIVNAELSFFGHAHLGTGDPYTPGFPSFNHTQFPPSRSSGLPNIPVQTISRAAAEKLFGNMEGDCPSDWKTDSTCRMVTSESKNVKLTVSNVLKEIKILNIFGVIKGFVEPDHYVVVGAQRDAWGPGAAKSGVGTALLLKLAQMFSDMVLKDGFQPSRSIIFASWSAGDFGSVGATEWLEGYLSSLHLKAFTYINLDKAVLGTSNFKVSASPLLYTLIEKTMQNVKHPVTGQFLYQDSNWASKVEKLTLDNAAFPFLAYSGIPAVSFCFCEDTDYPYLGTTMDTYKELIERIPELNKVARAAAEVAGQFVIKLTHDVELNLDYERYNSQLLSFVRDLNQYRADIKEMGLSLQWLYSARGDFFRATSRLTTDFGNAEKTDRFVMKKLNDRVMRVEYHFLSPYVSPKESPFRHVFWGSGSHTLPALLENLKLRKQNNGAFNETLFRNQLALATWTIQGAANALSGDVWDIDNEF

Target: T1, human transferrin receptor (hTfR) (Homo sapiens, UniProt P02786)
T1 construct: made in house
Assay: Evaluation of molecular interaction between transferrin receptor (hTfR) and peptide using surface plasmon resonance (SPR)
Type: binding
Description: Evaluation Test of Molecular Interaction Between Transferrin Receptor (hTfR) and Peptide Using Surface Plasmon Resonance (SPR)
The intermolecular interactions of various synthesized peptides with the transferrin receptor (hTfR) by surface plasmon resonance (SPR) of the peptides were tested by the methods described below. Specific test methods are shown below.
NTA sensor chip (Global Life Sciences Technologies Japan K.K.) was inserted into BiacoreT200 (Global Life Sciences Technologies Japan K.K.), then the priming operation was performed three times by using running buffer containing: 10 mM HEPES pH 8.0 (Nacalai Tesque, Inc.), 150 mM NaCl (Nacalai Tesque, Inc.), 0.05% Tween 20 (Nacalai Tesque, Inc.), 0.1% BSA (SIGMA-ALDRICH) and 1.0% DMSO (FUJIFILM Wako Pure Chemical Corporation), and equilibrated at a flow rate of 30 μL/min. 350 mM EDTA solution was reacted at a flow rate of 10 μL/min for 60 seconds, 0.5 mM […] solution (Kishida Chemical Co., Ltd.) was reacted at a flow rate of 10 μL/min for 60 seconds, and then the NTA sensor chip was washed with 3 mM EDTA solution (Nacalai Tesque, Inc.) at a flow rate of 10 μL/min for 60 seconds. After mixing 50 μL each of 60 mM EDC solution (Global Life Science Technologies Japan K.K.) and 650 mM NHS solution (Global Life Science Technologies Japan K.K.), the reaction was carried out at a flow rate of 10 μL/min for 420 seconds. 150 μL of 0.5 μM hTfR dimer solution was prepared by dilution with running buffer and reacted at a flow rate of 10 μL/min for 300 seconds to immobilize hTfR on the NTA sensor chip. For the human transferrin receptor (hTfR), recombinant hTfR described in Example 2 of WO2018/124121 was used. After immobilization, capping was performed by reacting with 1.0 M ethanolamine solution (Global Life Sciences Technologies Japan K.K.) at a flow rate of 10 μL/min for 420 seconds. Peptide lysate prepared in DMSO solution to 10 mM was diluted with running buffer to be a final concentration of 10 μM peptide lysate, then peptide solutions of 100 nM, 50 nM, 25 nM, 10 nM, and 5 nM were prepared. Using the above samples, the kinetics of the peptide against hTfR was obtained by SPR measurement.
The kinetic evaluation model was single-cycle kinetics, and curve fitting was performed using Biacore T200 Evaluation Software Version 3.0 (Global Life Science Technologies Japan K.K.). The binding of the peptide to hTfR was evaluated by performing curve fitting on the obtained sensorgram by least squares method and obtaining the KD value.

[1] = SPR, immobilized recombinant hTfR, single-cycle kinetics, substitution variants of 894_3151, read-out: KD
[2] = KD class of the peptide with linker for hTfR by surface plasmon resonance, read-out: SPR

Row | Kd [1] [µM] | SMILES | also measured
1 | 0.11 | CC[C@H](C)[C@@H]1NC(=O)[C@H](Cc2ccc(O)cc2)NC(=O)[C@H](Cc2ccc(O)cc2)NC(=O)[C@H](CC(N)=O)NC(=O)[C@H](Cc2c[nH]c3ccccc23)NC(=O)[C@H](C(C)C)NC(=O)[C@H](Cc2ccccc2)N(C)C(=O)[C@H](C(C)C)NC(=O)[C@H](Cc2ccccc2)NC(=O)CSC[C@@H](C(=O)NCCOCCOCCOCCOCCOCCOCCOCCOCCOCCOCCOCCOCCC(N)=O)NC(=O)[C@H](Cc2ccc(O)cc2)N(C)C(=O)[C@H](Cc2ccc(O)cc2)NC(=O)[C@H](CCCNC(=N)N)NC(=O)[C@H](CCCNC(=N)N)NC(=O)[C@H]([C@@H](C)CC)NC1=O [compound 254] | 
2 | 0.0244 | CC[C@H](C)[C@@H]1NC(=O)[C@H](Cc2ccc(O)cc2)NC(=O)[C@H](Cc2ccc(O)cc2)NC(=O)[C@H](CC(N)=O)NC(=O)[C@H](Cc2c[nH]c3ccccc23)NC(=O)[C@H](C(C)C)NC(=O)[C@H](Cc2ccccc2)N(C)C(=O)[C@H](C(C)C)NC(=O)[C@H](CO)NC(=O)CSC[C@@H](C(=O)NCCOCCOCCOCCOCCOCCOCCOCCOCCOCCOCCOCCOCCC(N)=O)NC(=O)[C@H](Cc2ccc(O)cc2)N(C)C(=O)[C@H](Cc2ccc(O)cc2)NC(=O)[C@H](CCCNC(=N)N)NC(=O)[C@H](CCCNC(=N)N)NC(=O)[C@H]([C@@H](C)CC)NC1=O [compound 255] | 
3 | 0.0186 | CC[C@H](C)[C@@H]1NC(=O)[C@H](Cc2ccc(O)cc2)NC(=O)[C@H](Cc2ccc(O)cc2)NC(=O)[C@H](CC(N)=O)NC(=O)[C@H](Cc2c[nH]c3ccccc23)NC(=O)[C@H](C(C)C)NC(=O)[C@H](Cc2ccccc2)N(C)C(=O)[C@H](C(C)C)NC(=O)CNC(=O)CSC[C@@H](C(=O)NCCOCCOCCOCCOCCOCCOCCOCCOCCOCCOCCOCCOCCC(N)=O)NC(=O)[C@H](Cc2ccc(O)cc2)N(C)C(=O)[C@H](Cc2ccc(O)cc2)NC(=O)[C@H](CCCNC(=N)N)NC(=O)[C@H](CCCNC(=N)N)NC(=O)[C@H]([C@@H](C)CC)NC1=O [compound 256] | 
4 | 0.164 | CC[C@H](C)[C@@H]1NC(=O)[C@H](Cc2ccc(O)cc2)NC(=O)[C@H](Cc2ccc(O)cc2)NC(=O)[C@H](CC(N)=O)NC(=O)[C@H](Cc2c[nH]c3ccccc23)NC(=O)[C@H](CO)NC(=O)[C@H](Cc2ccccc2)N(C)C(=O)[C@H](C(C)C)NC(=O)[C@H](C)NC(=O)CSC[C@@H](C(=O)NCCOCCOCCOCCOCCOCCOCCOCCOCCOCCOCCOCCOCCC(N)=O)NC(=O)[C@H](Cc2ccc(O)cc2)N(C)C(=O)[C@H](Cc2ccc(O)cc2)NC(=O)[C@H](CCCNC(=N)N)NC(=O)[C@H](CCCNC(=N)N)NC(=O)[C@H]([C@@H](C)CC)NC1=O [compound 257] | 
5 | 0.177 | CC[C@H](C)[C@@H]1NC(=O)[C@H](Cc2ccc(O)cc2)NC(=O)[C@H](Cc2ccc(O)cc2)NC(=O)[C@H](CC(N)=O)NC(=O)[C@H](Cc2c[nH]c3ccccc23)NC(=O)[C@H](C)NC(=O)[C@H](Cc2ccccc2)N(C)C(=O)[C@H](C(C)C)NC(=O)[C@H](C)NC(=O)CSC[C@@H](C(=O)NCCOCCOCCOCCOCCOCCOCCOCCOCCOCCOCCOCCOCCC(N)=O)NC(=O)[C@H](Cc2ccc(O)cc2)N(C)C(=O)[C@H](Cc2ccc(O)cc2)NC(=O)[C@H](CCCNC(=N)N)NC(=O)[C@H](CCCNC(=N)N)NC(=O)[C@H]([C@@H](C)CC)NC1=O [compound 258] | 
6 | 0.952 | CC[C@H](C)[C@@H]1NC(=O)[C@H](Cc2ccc(O)cc2)NC(=O)[C@H](Cc2ccc(O)cc2)NC(=O)[C@H](CC(N)=O)NC(=O)[C@H](Cc2c[nH]c3ccccc23)NC(=O)CNC(=O)[C@H](Cc2ccccc2)N(C)C(=O)[C@H](C(C)C)NC(=O)[C@H](C)NC(=O)CSC[C@@H](C(=O)NCCOCCOCCOCCOCCOCCOCCOCCOCCOCCOCCOCCOCCC(N)=O)NC(=O)[C@H](Cc2ccc(O)cc2)N(C)C(=O)[C@H](Cc2ccc(O)cc2)NC(=O)[C@H](CCCNC(=N)N)NC(=O)[C@H](CCCNC(=N)N)NC(=O)[C@H]([C@@H](C)CC)NC1=O [compound 259] | 
7 | 0.0721 | CC[C@H](C)[C@@H]1NC(=O)[C@H](Cc2ccc(O)cc2)NC(=O)[C@H](Cc2ccc(O)cc2)NC(=O)[C@H](CC(=O)O)NC(=O)[C@H](Cc2c[nH]c3ccccc23)NC(=O)[C@H](C(C)C)NC(=O)[C@H](Cc2ccccc2)N(C)C(=O)[C@H](C(C)C)NC(=O)[C@H](C)NC(=O)CSC[C@@H](C(=O)NCCOCCOCCOCCOCCOCCOCCOCCOCCOCCOCCOCCOCCC(N)=O)NC(=O)[C@H](Cc2ccc(O)cc2)N(C)C(=O)[C@H](Cc2ccc(O)cc2)NC(=O)[C@H](CCCNC(=N)N)NC(=O)[C@H](CCCNC(=N)N)NC(=O)[C@H]([C@@H](C)CC)NC1=O [compound 260] | 
8 | 0.279 | CC[C@H](C)[C@@H]1NC(=O)[C@H](Cc2ccc(O)cc2)NC(=O)[C@H](Cc2ccc(O)cc2)NC(=O)[C@H](C)NC(=O)[C@H](Cc2c[nH]c3ccccc23)NC(=O)[C@H](C(C)C)NC(=O)[C@H](Cc2ccccc2)N(C)C(=O)[C@H](C(C)C)NC(=O)[C@H](C)NC(=O)CSC[C@@H](C(=O)NCCOCCOCCOCCOCCOCCOCCOCCOCCOCCOCCOCCOCCC(N)=O)NC(=O)[C@H](Cc2ccc(O)cc2)N(C)C(=O)[C@H](Cc2ccc(O)cc2)NC(=O)[C@H](CCCNC(=N)N)NC(=O)[C@H](CCCNC(=N)N)NC(=O)[C@H]([C@@H](C)CC)NC1=O [compound 261] | 
9 | 0.218 | CC[C@H](C)[C@@H]1NC(=O)[C@H](Cc2ccccc2)NC(=O)[C@H](Cc2ccc(O)cc2)NC(=O)[C@H](Cc2ccc(O)cc2)NC(=O)[C@H](CC(N)=O)NC(=O)[C@H](Cc2c[nH]c3ccccc23)NC(=O)[C@H](C(C)C)NC(=O)[C@H](Cc2ccccc2)N(C)C(=O)[C@H](C(C)C)NC(=O)[C@H](C)NC(=O)CSC[C@@H](C(=O)NCCOCCOCCOCCOCCOCCOCCOCCOCCOCCOCCOCCOCCC(N)=O)NC(=O)[C@H](Cc2ccc(O)cc2)N(C)C(=O)[C@H](Cc2ccc(O)cc2)NC(=O)[C@H](CCCNC(=N)N)NC(=O)[C@H](CCCNC(=N)N)NC1=O [compound 262] | 
10 |  | CC[C@H](C)[C@@H]1NC(=O)[C@H](Cc2ccc(O)cc2)NC(=O)[C@H](Cc2ccc(O)cc2)NC(=O)[C@H](CC(N)=O)NC(=O)[C@H](Cc2c[nH]c3ccccc23)NC(=O)[C@H](C(C)C)NC(=O)[C@H](Cc2ccccc2)N(C)C(=O)[C@H](C(C)C)NC(=O)[C@H](C)NC(=O)CSC[C@@H](C(=O)NCC(=O)NCC(=O)NCC(=O)NCC(=O)N[C@@H](CO)C(=O)N[C@@H](CO)C(=O)N[C@@H](CCCCN=[N+]=[N-])C(N)=O)NC(=O)[C@H](Cc2ccc(O)cc2)N(C)C(=O)[C@H](Cc2ccc(O)cc2)NC(=O)[C@H](CCCNC(=N)N)NC(=O)[C@H](CCCNC(=N)N)NC(=O)[C@H]([C@@H](C)CC)NC1=O [compound 263] | Kd (SPR, KD class of the peptide with linker for hTfR by surface plasmon resonance): 0.001 to 0.1 µM
11 |  | CC[C@H](C)[C@@H]1NC(=O)[C@H](Cc2ccc(O)cc2)NC(=O)[C@H](Cc2ccc(O)cc2)NC(=O)[C@H](CC(N)=O)NC(=O)[C@H](Cc2c[nH]c3ccccc23)NC(=O)[C@H](C(C)C)NC(=O)[C@H](Cc2ccccc2)N(C)C(=O)[C@H](C(C)C)NC(=O)[C@H](C)NC(=O)CSC[C@@H](C(=O)NCC(=O)N[C@@H](CS)C(N)=O)NC(=O)[C@H](Cc2ccc(O)cc2)N(C)C(=O)[C@H](Cc2ccc(O)cc2)NC(=O)[C@H](CCCNC(=N)N)NC(=O)[C@H](CCCNC(=N)N)NC(=O)[C@H]([C@@H](C)CC)NC1=O [compound 264] | Kd [2]: 0.001 to 0.1 µM
12 |  | CC[C@H](C)[C@@H]1NC(=O)[C@H](Cc2ccc(OCC(=O)O)cc2)NC(=O)[C@H](Cc2ccc(O)cc2)NC(=O)[C@H](CC(N)=O)NC(=O)[C@H](Cc2cn(CC(=O)O)c3ccccc23)NC(=O)[C@H](C(C)C)NC(=O)[C@H](Cc2cccc(Cl)c2)N(C)C(=O)[C@H](C(C)C)NC(=O)[C@H](C)NC(=O)CSC[C@@H](C(=O)NCC(=O)N[C@H](CCC(=O)O)C(=O)N[C@H](CCC(=O)O)C(=O)N[C@H](CCC(=O)O)C(=O)N[C@H](CO)C(=O)N[C@H](CO)C(=O)N[C@@H](CCCCN)C(N)=O)NC(=O)[C@H](Cc2ccc(O)cc2)N(C)C(=O)[C@H](Cc2ccccc2)NC(=O)[C@H](CCCNC(=N)N)NC(=O)[C@H](CCCNC(=N)N)NC(=O)[C@H]([C@@H](C)CC)NC1=O [compound 265] | Kd [2]: 0.001 to 0.1 µM
13 |  | CC[C@H](C)[C@@H]1NC(=O)[C@H](Cc2ccc(O)cc2)NC(=O)[C@H](Cc2ccc(O)cc2)NC(=O)[C@H](CC(N)=O)NC(=O)[C@H](Cc2c[nH]c3ccccc23)N(C)C(=O)[C@H](C(C)C)NC(=O)[C@H](Cc2ccccc2)N(C)C(=O)[C@H](C(C)C)NC(=O)[C@H](C)NC(=O)CSC[C@@H](C(=O)NCC(=O)N[C@@H](CS)C(N)=O)NC(=O)[C@H](Cc2ccc(O)cc2)N(C)C(=O)[C@H](Cc2ccc(O)cc2)NC(=O)[C@H](CCCNC(=N)N)NC(=O)[C@H](CCCCN)NC(=O)[C@H]([C@@H](C)CC)NC1=O [compound 267] | Kd [2]: 0.001 to 0.1 µM
